Experimental data published in ChEMBL document CHEMBL4270486, “Anti-inflammatory Activity of Natural Geranylated Flavonoids: Cyclooxygenase and Lipoxygenase Inhibitory Properties and Proteomic Analysis” (J Nat Prod, 2017).

Key:
[1] = Selectivity index, ratio of IC50 for ram seminal vesicle COX1 to IC50 for human recombinant COX2
[2] = biological target: T1, Polyunsaturated fatty acid 5-lipoxygenase (Homo sapiens) (UniProt P09917); assay: Potency index, ratio of IC50 for zileuton to IC50 for test compound fior inhibition of human recombinant 5-LOX assessed as reduction in leukotriene B4 production pre-incubated for 10 mins before arachidonic acid addition and measured after 10 mins by ELISA
T1 sequence (whole entry): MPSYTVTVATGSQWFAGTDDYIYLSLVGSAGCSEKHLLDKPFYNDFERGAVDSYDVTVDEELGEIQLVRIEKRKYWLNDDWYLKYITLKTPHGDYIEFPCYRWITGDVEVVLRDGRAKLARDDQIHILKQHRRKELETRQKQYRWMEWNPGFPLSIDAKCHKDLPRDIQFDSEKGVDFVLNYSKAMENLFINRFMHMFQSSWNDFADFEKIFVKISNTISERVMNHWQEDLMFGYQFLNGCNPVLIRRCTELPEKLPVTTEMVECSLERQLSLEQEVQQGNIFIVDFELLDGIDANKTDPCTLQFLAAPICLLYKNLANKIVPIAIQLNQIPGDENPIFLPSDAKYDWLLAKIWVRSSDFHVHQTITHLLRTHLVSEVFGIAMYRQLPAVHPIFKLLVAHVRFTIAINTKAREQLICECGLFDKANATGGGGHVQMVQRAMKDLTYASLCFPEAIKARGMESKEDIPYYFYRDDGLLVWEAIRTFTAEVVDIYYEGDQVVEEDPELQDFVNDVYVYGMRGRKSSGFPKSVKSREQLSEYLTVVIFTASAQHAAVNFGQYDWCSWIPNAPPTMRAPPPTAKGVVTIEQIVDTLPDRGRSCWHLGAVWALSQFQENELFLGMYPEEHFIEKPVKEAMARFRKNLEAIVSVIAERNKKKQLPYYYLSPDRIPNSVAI

Ratio IC50 [1]: 0.43
Ratio IC50 [2]: 10
SMILES: CC(C)=CCC/C(C)=C/Cc1c(O)cc2c(c1O)C(=O)C[C@@H](c1ccc(O)c(O)c1)O2 [NYMPHAEOL A]
